As usually defined, the pIC50 is the negative decadic logarithm of the IC50, by convention in mol/L.

Protein sequences, listed by entry. Tags and fused reporters are not part of them. Lines headed by an entry give the natural chain unless they say otherwise; changes in a name come on top.
UniProt P33261, whole entry: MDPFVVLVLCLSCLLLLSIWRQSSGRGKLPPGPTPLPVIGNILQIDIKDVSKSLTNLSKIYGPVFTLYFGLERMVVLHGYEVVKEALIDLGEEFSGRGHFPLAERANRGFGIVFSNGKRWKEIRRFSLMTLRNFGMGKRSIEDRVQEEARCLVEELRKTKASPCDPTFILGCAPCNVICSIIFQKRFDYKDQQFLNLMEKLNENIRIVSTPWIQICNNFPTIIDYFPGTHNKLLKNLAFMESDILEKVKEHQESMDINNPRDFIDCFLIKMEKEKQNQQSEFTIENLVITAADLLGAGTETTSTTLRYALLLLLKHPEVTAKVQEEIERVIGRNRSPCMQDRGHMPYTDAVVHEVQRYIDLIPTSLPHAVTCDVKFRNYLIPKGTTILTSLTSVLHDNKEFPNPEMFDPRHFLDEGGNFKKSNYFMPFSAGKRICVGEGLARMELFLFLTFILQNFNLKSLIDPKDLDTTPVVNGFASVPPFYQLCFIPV
UniProt P28845: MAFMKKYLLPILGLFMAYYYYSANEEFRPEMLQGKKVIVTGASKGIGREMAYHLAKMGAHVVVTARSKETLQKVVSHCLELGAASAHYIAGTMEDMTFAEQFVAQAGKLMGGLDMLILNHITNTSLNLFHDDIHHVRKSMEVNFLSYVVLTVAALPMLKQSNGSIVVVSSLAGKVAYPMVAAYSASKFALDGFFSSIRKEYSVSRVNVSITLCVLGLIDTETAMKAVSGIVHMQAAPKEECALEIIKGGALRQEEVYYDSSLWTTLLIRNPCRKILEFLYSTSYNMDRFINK
UniProt P11712, whole entry: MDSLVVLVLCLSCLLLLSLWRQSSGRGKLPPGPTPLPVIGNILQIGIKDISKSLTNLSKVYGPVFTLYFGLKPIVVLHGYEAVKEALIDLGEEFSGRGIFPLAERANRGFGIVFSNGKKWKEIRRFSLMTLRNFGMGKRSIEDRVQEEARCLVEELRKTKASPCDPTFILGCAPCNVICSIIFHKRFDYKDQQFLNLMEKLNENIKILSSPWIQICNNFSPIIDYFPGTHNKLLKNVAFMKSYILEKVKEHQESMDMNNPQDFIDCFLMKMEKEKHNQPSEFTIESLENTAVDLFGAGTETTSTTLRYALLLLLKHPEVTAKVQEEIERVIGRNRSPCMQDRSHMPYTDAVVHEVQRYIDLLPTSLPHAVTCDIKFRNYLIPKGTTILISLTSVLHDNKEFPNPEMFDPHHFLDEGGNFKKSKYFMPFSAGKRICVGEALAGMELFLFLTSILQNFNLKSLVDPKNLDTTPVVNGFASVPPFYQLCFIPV

Here are results for 4 molecules from patent EP2424865B1 (Boehringer Ingelheim International GmbH, priority 2009, dated 2010).

pIC50: −log10 of the molar value. Where two headings read alike, the source gives them in different places.

Assay [1] has as its target human recombinant cytochrome P450 2C19 (Homo sapiens, UniProt P33261). The assay is described as follows: biochemical.
Assay [2] deals with T1, 11β-HSD1 (Homo sapiens, UniProt P28845). As to conditions: read-out: Biological Test Example 1 IC50; Examples.
For a further assay, the target named is CYP2C9 (Homo sapiens, UniProt P11712). Description: biochemical.
Assay [3] addresses T1, 11β-HSD1. Description: biochemical.

Take `C[C@@H](c1ccc(-c2ccn(CCF)c(=O)c2)cc1)N1CC[C@](CC(C)(C)O)(c2ccccc2)OC1=O` [Example 25, (S)-3-((S)-1-(4-(1-(2-fluoroethyl)-2-oxo-1,2-dihydropyridin-4-yl)phenyl)ethyl)-6-(2-hydroxy-2-methylpropyl)-6-phenyl-1,3-oxazinan-2-one]: in assay [1], the pIC50 was 4.66.
In the case of `CC(C)C1(CCC(C)(C)O)CCN([C@@H](C)c2ccc(-c3ccn(C)c(=O)c3)cc2)C(=O)O1` (single isomer, unassigned; isomer 1) [84 Isomer 1], the pIC50 on 11β-HSD1 [2] is < 7.00.
The molecule `C[C@@H](c1ccc(-c2ccc(=O)n(C)c2)cc1)N1CC[C@](CCCO)(c2ccccc2)OC1=O` [Example 30, (R)-6-(3-hydroxypropyl)-3-((S)-1-(4-(1-methyl-6-oxo-1,6-dihydropyridin-3-yl)phenyl)ethyl)-6-phenyl-1,3-oxazinan-2-one] showed a pIC50 at CYP2C9 of 4.84.
Take `CC(C)C1(CCC(C)(C)O)CCN([C@@H](C)c2ccc(-c3ccn(C)c(=O)c3)cc2)C(=O)O1` (single isomer, unassigned): the pIC50 against 11β-HSD1 [3] is < 7.00.
